# Assay results as given in US10004826B2, “Implantable human liver tissue constructs and uses thereof” (Massachusetts Institute of Technology, priority 2010, dated 2018).
# Tested on: CYP450
# Conditions: intraperitoneal RIF; second week of RIF induction; vs DMSO
structure (smiles),measurement,value
"CO[C@H]1/C=C/O[C@@]2(C)Oc3c(C)c(O)c4c(O)c(c(/C=N/N5CCN(C)CC5)c(O)c4c3C2=O)NC(=O)/C(C)=C\C=C\[C@H](C)[C@H](O)[C@@H](C)[C@@H](O)[C@@H](C)[C@H](OC(C)=O)[C@@H]1C [RIF, rifampin]",Up-regulation of CYP450 activity (BFC) in explants,11.1(+0.1) fold
